Experimental data from patent US10793568B2, “Hormone receptor modulators for treating metabolic conditions and disorders” (ARDELYX, INC., priority 2016, dated 2020).

By UniProt entry, the sequences of proteins in these tests, tags left out. Where a name states a change or a piece, a line headed by the entry shows the natural chain unless it says otherwise. Residues count along the entry.
UniProt Q96RI1, 262-486 limits assumed: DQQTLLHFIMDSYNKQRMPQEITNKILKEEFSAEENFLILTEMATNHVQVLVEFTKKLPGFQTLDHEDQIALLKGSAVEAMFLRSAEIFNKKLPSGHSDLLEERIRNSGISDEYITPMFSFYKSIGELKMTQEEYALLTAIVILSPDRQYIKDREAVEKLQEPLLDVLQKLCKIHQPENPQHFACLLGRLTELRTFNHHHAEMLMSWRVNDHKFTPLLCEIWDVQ
UniProt P04386, 1-147 partner limits assumed: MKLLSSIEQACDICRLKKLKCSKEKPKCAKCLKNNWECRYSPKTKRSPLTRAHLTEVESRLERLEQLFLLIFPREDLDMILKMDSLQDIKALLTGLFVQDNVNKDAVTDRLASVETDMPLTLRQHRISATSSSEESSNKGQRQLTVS

Experiments:
[1] = target: ligand binding domain of human FXR (Homo sapiens (Human), UniProt Q96RI1); test: FXR ligand binding assay (LanthaScreen TR-FRET, SRC2-2 peptide recruitment)
[2] = target: human Farnesoid X receptor ligand-binding domain/Gal4 DNA binding domain chimera (Homo sapiens (Human), UniProt Q96RI1); test: Cell-based assay of FXR activation (FXR-UAS-bla HEK 293T beta-lactamase reporter); settings: cellular FXR beta-lactamase reporter assay
[3] = extent of activation relative to GW4064

CCCCS(=O)(=O)NC(=O)c1ccc(N2C[C@@H]3C[C@H]2C[C@H]3OCc2c(-c3ccccc3C(F)(F)F)noc2C2CC2)c(F)c1
pEC50 ([1]; -log EC50, concentration required to produce 50% activation): 8.4 | % Efficacy [1, 3]: 208% | pEC50 ([2]; FXR-UAS-bla HEK 293T cells, 16 h, pEC50 = -log EC50): 9.8 | % Efficacy [2, 3]: 115%
